Data on one substance can be found in patent publication US9956243B2, “Combination treatment for acute myeloid leukemia (AML)” (Hoffmann-La Roche Inc., priority 2013, dated 2018).

How the values of the series were obtained:
Female SCID beige mice (10/group), obtained from Charles River Laboratories (Wilmington, Del.) were used when they were approximately 8-12 weeks old and weighed approximately 20-25 grams. The health of the mice was assessed daily by gross observation and analyses of blood samples taken from sentinel animals housed on shared shelf racks. All animals were allowed to acclimate and recover from any shipping-related stress for a minimum of 72 hours prior to experimental use. Autoclaved water and irradiated food (5058-ms Pico Lab mouse chow, Purina Mills, Richmond, Ind.) were provided ad libitum, and the animals were maintained on a 12 hour light and dark cycle. Cages, bedding and water bottles were autoclaved before use and changed weekly. All animal experiments were conducted in accordance with the Guide for the Care and Use of Laboratory Animals, local regulations, and protocols approved by the Roche Animal Care and Use Committee in an AAALAC accredited facility.
It was then filtered thru a 0.22 micron filter into a septum sealed vial for intravenous administration. […] Stock cytarabine (Ara-C injection, 100 mg/ml) was diluted in sterile 0.9% sodium chloride to 44 mg/ml according to manufacturer's instructions and dosed at 200 mg/kg iv twice weekly.
Treatment duration was 3 weeks.
For increased life span (ILS) assessment, animal body weights were measured two to three times per week, and animals were monitored daily for any clinical signs of toxicity or excessive tumor burden (i.e. hind limb paralysis or morbidity). In addition, progression of disease was monitored by in vivo bioluminescent imaging (BLI) using IVIS® Spectrum system. For each BLI session, mice received 100 mg/kg D-luciferin (Caliper Life Sciences/Perkin-Elmer) via ip injections and were imaged at 20 min post luciferin injection at either a 5 s or a 10 s exposure time. Images were captured by the IVIS® Spectrum system and data were collected and analyzed with Living Image 4.2.0 software (Caliper Life Sciences, Hopkinton, Mass.). Total photon fluxes (ph/s) representing luciferase activity within each fixed region of interest (ROI) covering whole tumors of individual mice were determined. The actual images of mice are not disclosed herein.
Weight loss was graphically represented as percent change in mean group body weight, using the formula: ((W−W0)/W0)×100, where ‘W’ represents mean body weight of the treated group at a particular day, and ‘W0’ represents mean body weight of the same treated group at initiation of treatment.

The mark [1] stands for this setting: compound I-B 437 mg/kg q7d iv, 10 mice/group.

For “4-{[(2R,3S,4R,5S)-3-(3-Chloro-2-fluoro-phenyl)-4-(4-chloro-2-fluoro-phenyl)-4-cyano-5-(2,2-dimethyl-propyl)-pyrrolidine-2-carbonyl]amino}-3-methoxy-benzoic acid 1-mPEG-carbonyloxy-ethyl ester (mPEG, average MW, ˜2200) [compound I-B]”, under setting [1], the “# of animals ≥20% body weight loss” value worked out at 0 and the “% Change in Body Weight at Day 17” value was −2.8%. Where the note is “compound I-B 437 mg/kg q7d iv, 10 mice/group, reason undetermined”, this substance came in with a Mortality of 1. In addition, the “deaths after iv dosing” value (directly after iv dosing, undetermined cause (potentially technical)) is given as “sporadic deaths”.
